ChEMBL document CHEMBL3826914, “Selective photodepletion of malignant T cells in extracorporeal photopheresis with selenorhodamine photosensitizers” (Bioorg Med Chem, 2016)

Assay: Efflux ratio of permeability from basolateral to apical over apical to basolateral side in dog MDCK2-MDR1 cells expressing ABCB1 at 5 uM after 30 mins by LC-MS/MS analysis
Conditions: mdck-mdr1, 0.5 h

In order of falling Ratio:
1. S=C(c1ccc(C2=c3cc4c5c(c3[Se]c3c2cc2c6c3CCCN6CCC2)CCC[N+]=5CCC4)s1)N1CCCCC1.[Cl-]  57
2. C[N+]1=c2cc3c(cc2C(C)(C)CC1)=C(c1ccc(C(=O)N2CCCCC2)s1)c1cc2c4c(c1[Se]3)CCCN4CCC2.[Cl-]  48
3. O=C(c1ccc(C2=c3cc4c5c(c3[Se]c3c2cc2c6c3CCCN6CCC2)CCC[N+]=5CCC4)s1)N1CCCCC1.[Cl-]  37
4. CN1CCC(C)(C)c2cc3c(cc21)[Se]c1cc2c(cc1=C3c1ccc(C(=O)N3CCCCC3)s1)C(C)(C)CC[N+]=2C.[Cl-]  36
5. C[N+]1=c2cc3c(cc2C(C)(C)CC1)=C(c1ccc(C(=S)N2CCCCC2)s1)c1cc2c4c(c1[Se]3)CCCN4CCC2.[Cl-]  20
6. CN1CCC(C)(C)c2cc3c(cc21)[Se]c1cc2c(cc1=C3c1ccc(C(=S)N3CCCCC3)s1)C(C)(C)CC[N+]=2C.[Cl-]  4
